This is an account of results in ChEMBL document CHEMBL4196200 (J Med Chem, 2018).

Sequences of proteins named here, by UniProt entry; tags and fusion partners are left off.
UniProt P37288, whole entry, looked up: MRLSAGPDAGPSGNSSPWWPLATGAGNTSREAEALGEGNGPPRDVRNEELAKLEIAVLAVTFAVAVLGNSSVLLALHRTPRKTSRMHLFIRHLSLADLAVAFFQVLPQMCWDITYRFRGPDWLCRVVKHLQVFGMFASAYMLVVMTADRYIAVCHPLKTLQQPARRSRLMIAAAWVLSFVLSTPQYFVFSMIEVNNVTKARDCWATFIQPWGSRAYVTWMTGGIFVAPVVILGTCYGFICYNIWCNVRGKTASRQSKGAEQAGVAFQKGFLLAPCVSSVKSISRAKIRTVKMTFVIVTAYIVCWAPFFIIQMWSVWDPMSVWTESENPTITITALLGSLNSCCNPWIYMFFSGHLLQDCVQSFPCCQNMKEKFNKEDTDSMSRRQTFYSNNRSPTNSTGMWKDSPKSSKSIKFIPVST

The term Emax denotes the size of the effect at its maximum, as opposed to the concentration needed.

What all share (type): functional, cell-based
The target in one test is Vasopressin V1a receptor (Homo sapiens, UniProt P37288). In words: Agonist activity at human V1A receptor expressed in HEK cells assessed as increase in intracellular calcium flux at 1 uM incubated for 45 mins by Indo1-AM dye based fluorescence assay relative to AVP. In general terms: A change in cytosolic calcium serves as a functional read-out for many receptors and channels.

Test [1] addresses T1, Oxytocin receptor (Homo sapiens) (UniProt P30559).
T1 sequence (whole entry): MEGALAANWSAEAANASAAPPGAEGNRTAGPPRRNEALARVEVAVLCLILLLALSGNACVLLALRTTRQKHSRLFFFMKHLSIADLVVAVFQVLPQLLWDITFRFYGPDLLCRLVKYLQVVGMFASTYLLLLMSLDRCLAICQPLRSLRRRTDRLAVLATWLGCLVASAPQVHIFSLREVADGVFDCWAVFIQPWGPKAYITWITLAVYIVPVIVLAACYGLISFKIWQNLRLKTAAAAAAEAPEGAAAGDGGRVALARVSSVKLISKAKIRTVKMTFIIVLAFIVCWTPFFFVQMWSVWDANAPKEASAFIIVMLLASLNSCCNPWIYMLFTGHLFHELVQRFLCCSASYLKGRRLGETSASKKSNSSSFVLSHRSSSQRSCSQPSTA
The test can be described thus: Agonist activity at human OTR receptor expressed in HEK293FT cells assessed as stimulation of calcium release by Aequorin based assay relative to OT.

In test [2] the target is T1, Oxytocin receptor (Homo sapiens). In words: Agonist activity at human OTR receptor expressed in HEK293FT cells incubated for 30 mins by beta-arrestin recruitment assay relative to OT. In general terms: Activated receptors often draw arrestin, which recruitment assays turn into a signal.
Test [3] addresses T2, Vasopressin V2 receptor (Homo sapiens, UniProt P30518). In words: Agonist activity at human V2 receptor expressed in HEK293FT cells incubated for 30 mins by beta-arrestin recruitment assay relative to AVP.
For test [4], the target named is T2, Vasopressin V2 receptor. In words: Agonist activity at human V2 receptor expressed in HEK293FT cells assessed as stimulation of calcium release by Aequorin based assay relative to AVP.

Consider `Cc1cc(C(=O)N2Cc3cnn(C)c3Nc3ccccc32)ccc1CNC(=O)N1CCC[C@H]1C(=S)N(C)C`, for which the Emax on Vasopressin V1a receptor was in the range of 5 to 10%.

For the compound `CC[C@H](C)[C@@H]1NC(=O)[C@H](Cc2ccc(OC)cc2)NC(=O)CCCSC[C@@H](C(=O)N2CCC[C@H]2C(=O)N[C@@H](CC(C)C)C(=O)NCC(N)=O)NC(=O)[C@H](CC(N)=O)NC(=O)[C@H](CCC(N)=O)NC1=O` [CARBETOCIN], the Emax amounted to 83% in test [1], 42% in test [2], 8% on Vasopressin V2 receptor [3] and 103% on Vasopressin V2 receptor [4].
